{
  "source": "PubChem BioAssay AID624416",
  "about": "(The Scripps Research Institute Molecular Screening Center, 2012)",
  "note": "The entries are a selection whose mix differs from that of the whole data set. Calls of active or inactive are those of the source. Rule as the data show it: active = inhibition above about 8.5%; inactive = the rest.",
  "data": [
    {"system": "HIV-1 gp120 / PG9 antibody interaction", "assay": "small molecules engaging PG9 antibody – biochemical, TR-FRET, primary screen (AID 624416)", "details": "TR-FRET gp120-PG9 antibody binding; at 6.7 µM; hits give high values", "values": [
      {"smiles": "CCC(=O)N(c1ccccc1)C1(COC)CCN(CCn2nnn(CC)c2=O)CC1", "inhibition": "inactive: -0.05%"},
      {"smiles": "CCC(=O)N(c1ccccc1)C1(COC)CCN(CCc2cccs2)CC1", "inhibition": "inactive: 0.26%"}
    ]}
  ]
}
